{"source": "patent US20030104393A1", "about": "“Blood assessment of injury” (priority 2000, published 2003)", "tested_on": "neurons", "details": "regular insulin subcutaneously, hypoglycemic for 4 hours", "data": [{"substance": "regular insulin", "values": [{"measurement": "Neuronal injury", "value": "severe diffuse neuronal injury"}]}]}
